# Earlier results as cited in paper PMC6152717, “Novel Tacrine-Scutellarin Hybrids as Multipotent Anti-Alzheimer’s Agents: Design, Synthesis and Biological Evaluation” (Molecules : A Journal of Synthetic Chemistry and Natural …, 2017).
# Tested on: AChE
# Conditions: selectivity index for AChE over BChE; cited from earlier work
structure (smiles),measurement,value
COc1cc2c(cc1OC)C(=O)C(CC1CCN(Cc3ccccc3)CC1)C2 (stereo not shown) [donepezil],SI value,1100
